Molecular target: TRAP1 enzyme (Homo sapiens, UniProt Q12931)
Assay: Malachite green phosphate assay of TRAP1 ATPase activity
Experimental: The Potency of test compounds to modulate the ATPase activity of TRAP1 enzyme was evaluated using malachite green phosphatase assay. The assay is based on quantification of the green complex formed between Malachite Green, molybdate and inorganic phosphate generated in the phosphatase reaction. Assays were performed using a Malachite Green assay kit. All the assays were carried out in a 96-well transparent plate. The buffer used was 50 mM HEPES (pH 7.5), 20 mM KCl, 4 mM MgCl2 and 0.05% BSA. 150 nM Trap1 enzyme was incubated with various concentrations of the test compound (0.78 μM-100 μM) at 37° C. for 30 mins. 20 μM ATP was added to each well (except blank wells) to start the reaction and the plate was then incubated at 37° C. for 180 mins. 10 μl of the reaction volume of each sample was then transferred to a white 384-well proxiplate in quadruplets. 2.5 μl of Malachite Green reagent was added to all the wells and the plate was equilibrated for 15 mins. The reaction was stopped by adding 12% H2SO4 and the plate was read for fluorescence at 620 nm (λex=573 nm). The amount of phosphate released was estimated from a phosphate standard curve generated at the same experimental conditions. […]

By UniProt entry, the sequences of proteins in these tests, tags left out. Residues count along the entry.
UniProt Q12931, 60-704 limits assumed: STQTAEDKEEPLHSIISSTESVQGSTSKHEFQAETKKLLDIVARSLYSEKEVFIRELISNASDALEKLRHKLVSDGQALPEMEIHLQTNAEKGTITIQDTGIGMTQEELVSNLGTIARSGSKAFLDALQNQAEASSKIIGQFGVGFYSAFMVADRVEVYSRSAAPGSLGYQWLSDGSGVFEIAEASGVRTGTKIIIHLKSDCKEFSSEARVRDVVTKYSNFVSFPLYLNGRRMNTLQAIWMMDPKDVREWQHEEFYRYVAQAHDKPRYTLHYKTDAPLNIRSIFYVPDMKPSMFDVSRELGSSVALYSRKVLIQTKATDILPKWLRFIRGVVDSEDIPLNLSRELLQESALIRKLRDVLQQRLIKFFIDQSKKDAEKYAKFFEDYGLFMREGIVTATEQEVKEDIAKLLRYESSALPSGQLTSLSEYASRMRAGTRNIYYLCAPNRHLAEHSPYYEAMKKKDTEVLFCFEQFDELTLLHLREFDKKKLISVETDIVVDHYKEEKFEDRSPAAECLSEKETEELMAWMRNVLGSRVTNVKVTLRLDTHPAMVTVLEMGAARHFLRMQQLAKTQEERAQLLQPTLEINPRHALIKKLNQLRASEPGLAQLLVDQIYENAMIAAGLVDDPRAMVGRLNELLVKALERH

- Malachite Green Fluor DRC: Mean Emax (maximal percent activation of TRAP1 ATPase, mean): D (“D” refers to 123-159%, inclusive)
- EC50 (read-out: Malachite Green Fluor DRC: GeoMean EC50, TRAP1 ATPase activation, 150 nM Trap1, 20 μM ATP, geometric mean): 20 to 100 µM
Structure (SMILES): COc1ccc(NC(=O)c2ccccc2Cl)cc1S(=O)(=O)Nc1ccc(Br)cc1
